In ChEMBL document CHEMBL5728797, “Pyrrolopyrimidine derivatives as TAM inhibitors” (2021) one finds IC50 data, which are given here for one molecule.

Sequences of proteins named here, by UniProt entry; tags and fusion partners are left off. A change or cut given only in a name is not applied to a line headed by its entry.
UniProt P23458: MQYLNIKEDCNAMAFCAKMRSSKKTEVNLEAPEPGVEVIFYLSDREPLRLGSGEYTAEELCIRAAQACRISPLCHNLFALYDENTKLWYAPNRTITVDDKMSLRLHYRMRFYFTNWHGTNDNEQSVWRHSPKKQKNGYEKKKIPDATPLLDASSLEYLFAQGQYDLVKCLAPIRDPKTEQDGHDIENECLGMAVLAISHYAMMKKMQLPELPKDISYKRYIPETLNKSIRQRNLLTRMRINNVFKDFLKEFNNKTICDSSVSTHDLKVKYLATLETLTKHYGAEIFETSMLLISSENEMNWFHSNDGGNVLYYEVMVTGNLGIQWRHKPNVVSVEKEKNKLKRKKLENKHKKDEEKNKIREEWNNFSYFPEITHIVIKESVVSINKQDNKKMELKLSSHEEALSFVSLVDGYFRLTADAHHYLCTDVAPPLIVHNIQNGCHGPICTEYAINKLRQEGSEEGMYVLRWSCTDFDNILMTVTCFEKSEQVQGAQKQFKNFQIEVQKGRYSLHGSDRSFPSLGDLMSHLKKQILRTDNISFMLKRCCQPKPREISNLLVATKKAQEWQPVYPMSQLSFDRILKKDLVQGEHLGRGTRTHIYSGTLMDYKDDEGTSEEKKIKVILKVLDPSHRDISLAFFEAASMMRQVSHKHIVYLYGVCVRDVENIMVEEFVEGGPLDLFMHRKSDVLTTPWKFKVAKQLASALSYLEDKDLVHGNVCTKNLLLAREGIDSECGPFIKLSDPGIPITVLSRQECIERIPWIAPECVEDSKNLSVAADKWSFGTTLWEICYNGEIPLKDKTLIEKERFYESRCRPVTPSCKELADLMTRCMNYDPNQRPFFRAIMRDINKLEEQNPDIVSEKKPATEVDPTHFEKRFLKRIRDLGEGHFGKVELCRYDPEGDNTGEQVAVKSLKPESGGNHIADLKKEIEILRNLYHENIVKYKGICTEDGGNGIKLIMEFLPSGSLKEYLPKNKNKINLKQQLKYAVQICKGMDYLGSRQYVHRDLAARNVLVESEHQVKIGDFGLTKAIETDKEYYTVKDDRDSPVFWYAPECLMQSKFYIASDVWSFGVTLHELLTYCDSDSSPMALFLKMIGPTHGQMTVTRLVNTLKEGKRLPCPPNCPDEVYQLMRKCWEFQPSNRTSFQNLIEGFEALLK

Each structure is given as a SMILES string.

This experiment concerns the target Tyrosine-protein kinase JAK1 (Homo sapiens, UniProt P23458).

With `CN(C)Cc1cc(F)cc(OC2CCN(CC(CC#N)n3cc(-c4ncnc5[nH]ccc45)cn3)CC2)c1` (single isomer, unassigned), the half-inhibitory concentration (IC50) is under 10 nM.

One may read the IC50 as the point on the concentration scale where inhibition reaches its midpoint. Read a high IC50 as lower potency.
